# Test results published in patent publication US9714247B2, “Multiple kinase pathway inhibitors” (Mannkind Corporation, priority 2012, dated 2017).
# The chains behind the UniProt entries cited, without tags or fusion partners. Where a name states a change or a piece, a line headed by the entry shows the natural chain unless it says otherwise.
# UniProt P07948: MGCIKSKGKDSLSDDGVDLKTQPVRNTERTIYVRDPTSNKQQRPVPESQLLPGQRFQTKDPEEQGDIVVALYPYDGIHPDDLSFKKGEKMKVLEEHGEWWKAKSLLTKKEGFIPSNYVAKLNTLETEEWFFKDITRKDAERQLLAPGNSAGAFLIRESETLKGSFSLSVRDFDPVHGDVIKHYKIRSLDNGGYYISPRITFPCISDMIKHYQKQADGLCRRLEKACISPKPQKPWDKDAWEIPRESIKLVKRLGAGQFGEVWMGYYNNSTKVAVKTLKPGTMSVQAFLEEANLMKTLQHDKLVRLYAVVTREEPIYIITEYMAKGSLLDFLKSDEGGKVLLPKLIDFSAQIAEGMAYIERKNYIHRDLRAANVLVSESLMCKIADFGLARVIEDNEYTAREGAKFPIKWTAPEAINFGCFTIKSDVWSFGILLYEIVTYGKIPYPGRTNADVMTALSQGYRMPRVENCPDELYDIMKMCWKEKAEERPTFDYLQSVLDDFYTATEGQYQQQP
# Molecular target: Lyn (Homo sapiens (Human), UniProt P07948)
# Conditions: read-out: Lyn IC50
compound,measurement,value
"CCn1c(=O)c(-c2cc(OC)ccc2F)cc2cnc(Nc3ccc(N(C)C4CCN(C)CC4)cn3)cc21 [Compound 119, 1-ethyl-3-(2-fluoro-5-methoxyphenyl)-7-((5-(methyl(1-methylpiperidin-4-yl)amino)pyridin-2-yl)amino)-1,6-naphthyridin-2(1H)-one]",IC50,< 100 nM
